Measurements from publication PMC2871040.

Target: wild-type SEDLIN (HA-SEDLIN or cMyc-SEDLIN, expressed in COS7 cells) (human) (UniProt P0DI81)
Assay: native gel or EMSA; nuclear and cytoplasmic fractions (40 ug total protein) of COS7 cells transfected with cMyc-SEDLIN; 12% continuous non-denaturing PAGE in 1x Tris/Glycine buffer; Western blot with anti-cMyc

- stoichiometry N: 2
Substance: wild-type SEDLIN (HA-SEDLIN or cMyc-SEDLIN, expressed in COS7 cells) (from UniProt P0DI81 1-140) (natural protein)
